Earlier results in patent publication US9539445B2, “Type of anion-containing calcium phosphate compound for dental remineralization” (TAIPEI MEDICAL UNIVERSITY, priority 2010, dated 2017).

Conditions: in water; materials known in the art for dental remineralization

Row | solubility | Substance
1 | 2 g/100 ml water | calcium glycerophosphate
2 | 0.3-1 g/100 ml water | calcium lactophosphate
